In patent publication US20170157251A1, “Bi-Specific Monovalent Diabodies That are Capable of Binding CD19 and CD3, and Uses Thereof” (MacroGenics, Inc., priority 2015, published 2017):

Target: T1, soluble human CD3ε/δ heterodimer and soluble human CD19-biotin (Homo sapiens, UniProt P07766+P15391)
T1 construct: coated with soluble human CD3ε/δ heterodimer; followed by addition of soluble human CD19-biotin
Test: Bifunctional ELISA, simultaneous engagement of both target antigens
Assay type: binding
Description: The plates were washed and the immune complex was detected with chemoluminescent substrate conjugated to streptavidin.

For “Control DART 1: control DART capable of binding to fluorescein and CD3 [reference compound]”, the “simultaneous binding to both CD19 and CD3” value was “Neither Control DART 1 (▪) nor Control DART 2 (▴) were capable of binding to both targets simultaneously”.
